Target: Bone morphogenetic protein receptor type-1B (Homo sapiens, UniProt O00238)
Assay: Inhibition of ALK6 (unknown origin)
Outline: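 Radiometric in vitro kinase assay on human kinases with 10 μM (33P)γATP.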

Protein sequences, listed by entry. Tags and fused reporters are not part of them. Lines headed by an entry give the natural chain unless they say otherwise; changes in a name come on top.
UniProt O00238: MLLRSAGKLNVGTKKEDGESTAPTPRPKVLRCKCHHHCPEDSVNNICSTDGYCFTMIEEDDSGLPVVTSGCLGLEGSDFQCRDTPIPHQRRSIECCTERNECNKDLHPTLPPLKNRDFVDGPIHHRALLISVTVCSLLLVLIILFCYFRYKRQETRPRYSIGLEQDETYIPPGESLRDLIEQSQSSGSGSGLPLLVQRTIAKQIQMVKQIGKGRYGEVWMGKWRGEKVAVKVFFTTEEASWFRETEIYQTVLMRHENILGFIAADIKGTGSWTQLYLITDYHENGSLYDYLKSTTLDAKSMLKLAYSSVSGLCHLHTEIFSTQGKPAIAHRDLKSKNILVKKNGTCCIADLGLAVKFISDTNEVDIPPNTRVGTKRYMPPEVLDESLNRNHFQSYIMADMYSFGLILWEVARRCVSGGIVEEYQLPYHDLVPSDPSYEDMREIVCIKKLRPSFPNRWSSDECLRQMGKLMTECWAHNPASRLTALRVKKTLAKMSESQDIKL

c1cc(-c2cnn3cc(-c4ccc(OCCN5CCCCC5)cc4)cnc23)ccn1 [DORSOMORPHIN]
IC50: 235 nM
